The chains behind the UniProt entries cited, without tags or fusion partners.
UniProt Q53GL7, whole entry: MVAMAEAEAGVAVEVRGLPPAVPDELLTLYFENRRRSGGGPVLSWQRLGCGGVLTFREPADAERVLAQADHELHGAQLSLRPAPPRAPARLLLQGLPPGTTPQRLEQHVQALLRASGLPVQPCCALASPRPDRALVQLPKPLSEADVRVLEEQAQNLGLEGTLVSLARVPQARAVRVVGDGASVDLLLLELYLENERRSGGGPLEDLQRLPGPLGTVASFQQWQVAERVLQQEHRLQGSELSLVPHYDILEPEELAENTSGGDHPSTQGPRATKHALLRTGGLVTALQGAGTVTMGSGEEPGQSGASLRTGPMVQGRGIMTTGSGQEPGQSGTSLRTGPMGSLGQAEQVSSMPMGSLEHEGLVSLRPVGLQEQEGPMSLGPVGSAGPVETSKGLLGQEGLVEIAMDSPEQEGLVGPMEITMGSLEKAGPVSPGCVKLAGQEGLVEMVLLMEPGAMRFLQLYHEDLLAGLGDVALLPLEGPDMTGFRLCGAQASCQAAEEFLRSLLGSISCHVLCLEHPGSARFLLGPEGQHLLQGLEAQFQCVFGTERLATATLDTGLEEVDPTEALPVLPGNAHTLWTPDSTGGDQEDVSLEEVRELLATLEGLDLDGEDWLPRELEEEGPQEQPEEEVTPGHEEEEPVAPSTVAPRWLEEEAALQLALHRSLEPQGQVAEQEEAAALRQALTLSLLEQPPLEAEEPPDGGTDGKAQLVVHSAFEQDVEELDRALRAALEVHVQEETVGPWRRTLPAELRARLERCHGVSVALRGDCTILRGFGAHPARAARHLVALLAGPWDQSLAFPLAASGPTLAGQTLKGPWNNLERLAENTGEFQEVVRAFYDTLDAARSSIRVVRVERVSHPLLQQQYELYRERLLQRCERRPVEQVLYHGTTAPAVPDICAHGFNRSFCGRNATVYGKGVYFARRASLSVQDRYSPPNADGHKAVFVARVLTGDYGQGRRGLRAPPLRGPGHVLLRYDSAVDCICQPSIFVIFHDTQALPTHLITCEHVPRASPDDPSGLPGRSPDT

In patent US20250177359A1, “COMPOUNDS FOR USE IN THE TREATMENT OF CANCER AND INFLAMMATORY CONDITIONS” (priority 2022, published 2025):

Target: PARP10 (Homo sapiens, UniProt Q53GL7)
Assay: Activity assay measuring NAD+ consumption, PARP10 (Tables 1-3)
Format: biochemical
Details: Tables 1-3 assay

## Cc1ccc2c(n1)sc1nnc(N)n12
  PARP10 pIC50 ± SEM: 7.26 ± 0.06
read-out: PARP10 IC50
  IC50: 60 nM
